These results are taken from patent EP0927179B1, “SUBSTITUTED BENZOCYCLOHEPTAPYRIDINE DERIVATIVES USEFUL FOR INHIBITION OF FARNESYL PROTEIN TRANSFERASE” (SCHERING CORPORATION, priority 1996, dated 1998).

Experiment [1] deals with T1, farnesyl protein transferase (Homo sapiens, UniProt P49354+P49356). In words: FPT IC50 (H-ras), inhibition of farnesyl protein transferase, in vitro enzyme assay. Format: biochemical. The method, then:
(§1) FPT IC50 (inhibition of farnesyl protein transferase, in vitro enzyme assay) and COS Cell IC50 (Cell-Based Assay) were determined following the assay procedures described in WO 95/10516, published April 20, 1995. GGPT IC50 (inhibition of geranylgeranyl protein transferase, in vitro enzyme assay), Cell Mat Assay, and anti-tumor activity (in vivo anti-tumor studies) could be determined by the assay procedures described in WO 95/10516. The disclosure of WO 95/10516 is incorporated herein by reference thereto.

Experiment [2] deals with T1, farnesyl protein transferase. In words: FPT IC50 (K-ras), inhibition of farnesyl protein transferase, in vitro enzyme assay. Format: biochemical. The method, then: as §1

As to `CS(=O)(=O)N1CCC(CC(=O)N2CCC([C@H]3c4ncc(Br)cc4CCc4cc(Cl)cc(Br)c43)CC2)CC1` [Example 2], the IC50 in experiment [1] is 2.1 nM; in experiment [2], 8.2 nM.

The compound `NS(=O)(=O)N1CCC(CC(=O)N2CCC([C@H]3c4ncc(Br)cc4CCc4cc(Cl)cc(Br)c43)CC2)CC1` [Example 4] showed an IC50 in experiment [1] of 2.9 nM.
